Experimental data reported in PubChem BioAssay AID504332 (National Center for Advancing Translational Sciences (NCATS), 2011).
This is a selection; strong and weak results do not stand in their true shares. Results filed as inconclusive are left out. A call without a number means that no potency is given here. Active and inactive are the calls of the source. Calls come from the whole dose curve; as a rule, active = well fitted inhibition curve with a large enough effect; inconclusive = small, poorly fitted or top-dose-only effect; inactive = no such curve, though single readings can be large or run the other way.

Chains of the proteins cited; added tags and fusions are not shown. Residues count along the entry.
UniProt Q96KQ7, 913-1193 limits assumed: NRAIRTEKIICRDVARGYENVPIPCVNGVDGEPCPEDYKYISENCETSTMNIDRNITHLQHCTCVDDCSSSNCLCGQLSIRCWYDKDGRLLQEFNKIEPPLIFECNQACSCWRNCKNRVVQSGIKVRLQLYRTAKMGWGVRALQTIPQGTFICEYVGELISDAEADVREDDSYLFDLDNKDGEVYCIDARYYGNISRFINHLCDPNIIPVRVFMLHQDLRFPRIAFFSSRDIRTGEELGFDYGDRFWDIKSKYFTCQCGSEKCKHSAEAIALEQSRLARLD

Target: Histone-lysine N-methyltransferase EHMT2 (Homo sapiens) (UniProt Q96KQ7)
Assay: qHTS Assay for Inhibitors of Histone Lysine Methyltransferase G9a; note: nearly all actives have a fitted effect of over 75% in size
Conditions: G9a H3K9 monomethylation, AlphaScreen, 2 h; series mostly up to 102 µM
Potency is the fitted concentration of half-maximal effect.

| Structure (SMILES) | activity, negative = inhibition | Potency |
| --- | --- | --- |
| CP(=S)(Nn1cnnc1)Oc1ccccc1 (centres undefined) | inactive: 8.93% [at 12.7 µM] | – |
| CP(=O)(Nc1ccccc1Br)Oc1ccccc1 (centres undefined) | inactive | – |
| COc1ccccc1OP(C)(=O)Nc1ccccc1 (centres undefined) | inactive | – |
| CCOC(=O)c1ccc(NP(C)(=O)Oc2ccc(OC)cc2)cc1 (centres undefined) | inactive | – |
| CCOP(C)(=S)SCC(=O)NC(C)C(=O)O (centres undefined) | inactive | – |
| CP(=O)(Nc1ccccn1)Oc1ccc(Cl)cc1 (centres undefined) | inactive | – |
| CP(=O)(Nc1ccc(SC(F)(F)F)cc1)Oc1ccc(Cl)cc1 (centres undefined) | inactive | – |
| Cc1cccc(C)c1OP(C)(=O)Nc1ccc(SC(F)(F)F)cc1 (centres undefined) | inactive | – |
| CP(=O)(Oc1ccccc1)OC(c1ccccc1)C(F)(F)F (centres undefined) | inactive | – |
| CCc1ccc(OP(C)(=O)N2CCN(c3ccc([N+](=O)[O-])cc3)CC2)cc1 (centres undefined) | inactive | – |
| CP(=O)(NC(=O)Nc1ccccc1)Oc1ccccc1 (centres undefined) | inactive | – |
| Cc1cc(C)cc(OP(C)(=O)Nc2ccc(SC(F)(F)F)cc2)c1 (centres undefined) | inactive | – |
| O=[N+]([O-])[O-].[NH4+] | inactive | – |
| CCN(CC)CCCOC(=O)C(O)(c1ccccc1)c1ccccc1 | inactive | – |
| COc1ccccc1OP(C)(=O)Nc1ccc(C)cc1 (centres undefined) | inactive | – |
| Cc1ccc(NP(C)(=O)Oc2ccccc2)c(C)c1 (centres undefined) | inactive | – |
| CCOC(=O)c1ccc(NP(C)(=O)Oc2ccccc2)cc1 (centres undefined) | inactive | – |
| Cc1cc(C)cc(OP(C)(N)=O)c1 (centres undefined) | inactive | – |
| COc1ccccc1OP(C)(=O)Nc1cc(Cl)ccc1C (centres undefined) | inactive | – |
| COc1ccc(OP(C)(=O)Nc2cccc(F)c2)cc1 (centres undefined) | inactive | – |
| O=[N+]([O-])c1cc([N+](=O)[O-])c(Nc2cccnc2)c([N+](=O)[O-])c1 | inactive: -10.4% [at 2.33 µM] | – |
| CC(C)(C)c1ccc(OP(C)(=O)Nc2ccc(SC(F)(F)F)cc2)cc1 (centres undefined) | inactive | – |
| Cc1cccc(C)c1OP(C)(N)=O (centres undefined) | inactive | – |
| O=[N+]([O-])OCC(CO[N+](=O)[O-])(CO[N+](=O)[O-])CO[N+](=O)[O-] | inactive | – |
| O=[N+]([O-])c1cccc([N+](=O)[O-])c1 | inactive | – |

| Structure (SMILES) | activity, negative = inhibition | Potency |
| --- | --- | --- |
| Cc1ccc(C)c(NP(C)(=O)Oc2ccccc2)c1 (centres undefined) | inactive: -29.8% [at 12.7 µM] | – |
| CP(=O)(Nc1cccc(Br)c1)Oc1ccccc1 (centres undefined) | inactive | – |
| Cc1cc(C)cc(OP(C)(=O)Nc2ccccn2)c1 (centres undefined) | inactive: -0.16% [at 12.7 µM] | – |
| COc1ccccc1OP(C)(=O)Nc1cccc(Br)c1 (centres undefined) | inactive: 3.27% [at 12.7 µM] | – |
| CCOC(=O)c1ccc(NP(C)(=O)Oc2cc(C)cc(C)c2)cc1 (centres undefined) | inactive | – |
| Cc1cc(C)cc(OP(C)(=O)Nc2ccc(C)cc2C)c1 (centres undefined) | inactive | – |
| CN1CCCCC1COC(=O)C1(O)c2ccccc2CCc2ccccc21 (centres undefined) | inactive | – |
| COc1ccccc1OP(C)(=O)Nc1c(C)cccc1C (centres undefined) | inactive | – |
| CP(=O)(Nc1ccc(SC(F)(F)F)cc1)Oc1ccccc1 (centres undefined) | inactive | – |
| CCCOc1ccc(NP(C)(=O)Oc2ccc(Cl)cc2)cc1 (centres undefined) | inactive | – |
| O=[N+]([O-])c1cc([N+](=O)[O-])c(Nc2nnnn2CCO)c([N+](=O)[O-])c1 | – | active: 79.4 µM |
| CC1=C2N=C(C=C3N=C(C(C)=C4[N-][C@@](C)([C@@H]5N=C1[C@](C)(CCC(=O)NC[C@@H](C)OP(=O)([O-])O[C@H]1[C@@H](O)[C@@H](n6cnc7cc(C)c(C)cc76)O[C@@H]1CO)[C@H]5CC(N)=O)[C@@](C)(CC(N)=O)[C@@H]4CCC(N)=O)[C@@](C)(CC(N)=O)[C@@H]3CCC(N)=O)C(C)(C)[C@@H]2CCC(N)=O.[C-]#N.[Co+3] | inactive: -33.1% [at 12.7 µM] | – |
| O=[N+]([O-])c1ccc(OP2(=O)COCCO2)cc1 (centres undefined) | inactive | – |
| COc1ccc(OP(C)(=O)Nc2cccc(Br)c2)cc1 (centres undefined) | inactive | – |
| CN(C)CCOC(=O)C(O)(c1ccccc1)C1CCCCC1 (centres undefined) | inactive | – |
| COc1ccc(NP(C)(=O)Oc2ccccc2OC)cc1 (centres undefined) | inactive | – |
| CP(=O)(Nc1ccc2c(c1)OCCO2)Oc1ccccc1 (centres undefined) | inactive | – |
| Cc1ccccc1NP(C)(=O)Nc1ccccc1C | inactive | – |
| CCOP(C)(=S)SCC(=O)NC(C)(CC)C(=O)O (centres undefined) | inactive | – |
| CP(=O)(Nc1ccccc1F)Oc1ccccc1 (centres undefined) | inactive | – |
| CC(C)c1ccc(OP(C)(=O)Nc2ccc(SC(F)(F)F)cc2)cc1 (centres undefined) | inactive | – |
| CCN(CC)CCCOC(=O)C(O)(c1ccccc1)C1CCCCC1 (centres undefined) | inactive | – |
| CP(=O)(Nc1ccccc1)Oc1ccc(F)cc1 (centres undefined) | inactive: -8.38% [at 0.0925 µM] | – |
| CCCCCOc1ccc(NP(C)(=O)Oc2ccc(Cl)cc2Cl)cc1 (centres undefined) | inactive: -0.441% [at 12.7 µM] | – |
| CCOC(=O)c1ccc(NP(C)(=O)Oc2ccc(F)cc2)cc1 (centres undefined) | inactive | – |

| Structure (SMILES) | activity, negative = inhibition | Potency |
| --- | --- | --- |
| COc1ccc(OP(C)(=O)Nc2ccc(SC(F)(F)F)cc2)cc1 (centres undefined) | inactive | – |
| CP(=O)(OCCOc1ccccc1)OCCOc1ccccc1 | inactive | – |
| CP(=O)(Nc1ccc(Cl)cc1Cl)Oc1ccccc1 (centres undefined) | inactive | – |
| Cc1cc(C)cc(OP(C)(=O)Nc2cccc(C(F)(F)F)c2)c1 (centres undefined) | inactive | – |
| COc1ccccc1OP(C)(=O)Nc1ccc(C)c(C)c1 (centres undefined) | inactive | – |
| COc1ccc(OP(C)(=O)Nc2ccccc2Br)cc1 (centres undefined) | inactive | – |
| Cc1c(NP(C)(=O)Oc2ccc(C(C)C)cc2)c(=O)n(-c2ccccc2)n1C (centres undefined) | inactive | – |
| CP(=O)(Nc1ccccn1)Oc1ccccc1 (centres undefined) | inactive | – |
| COc1ccccc1OP(C)(=O)Nc1ccc(C)cc1C (centres undefined) | inactive: 64.3% [at 12.7 µM] | – |
| CCc1ccc(OP(C)(=O)O)cc1 | inactive: 2.7% [at 12.7 µM] | – |
| COc1ccccc1OP(C)(=O)Nc1ccc(Br)cc1 (centres undefined) | inactive | – |
| COc1ccc(OP(C)(=O)Nc2ccccn2)cc1 (centres undefined) | inactive | – |
| CC(C)(C)c1ccc(OP(C)(=O)O)cc1 | inactive: 7.58% [at 12.7 µM] | – |
| COc1ccccc1OP(C)(=O)Nc1ccccc1Br (centres undefined) | inactive | – |
| CP(=O)(Nc1ccc(Cl)cc1)Oc1ccc(F)cc1 (centres undefined) | inactive | – |
| CCN(CC)CC(O)COC(=O)C(O)(c1ccccc1)C1CCCCC1 (centres undefined) | inactive | – |
| COc1ccc(OP(C)(=O)Nc2ccc(Br)cc2)cc1 (centres undefined) | inactive | – |
| COc1ccccc1OP(C)(=O)Nc1c(C)n(C)n(-c2ccccc2)c1=O (centres undefined) | inactive | – |
| OCCSCCO | inactive: -34.9% [at 2.33 µM] | – |
| CP(=O)(Oc1ccccc1)N1CCOC1=O (centres undefined) | inactive | – |
| CCc1ccc(OP(C)(=O)Nc2cccnc2)cc1 (centres undefined) | inactive | – |
| C/C1=C2N=C(/C=C3N=C(/C(C)=C4\[N-][C@@](C)([C@H]5N=C1[C@@](C)(CCC(=O)NC[C@H](C)OP(=O)([O-])O[C@@H]1[C@H](O)[C@H](n6cnc7cc(C)c(C)cc76)O[C@@H]1CO)[C@@H]5CC(N)=O)[C@](C)(CC(N)=O)[C@H]4CCC(N)=O)[C@@](C)(CC(N)=O)[C@@H]\3CCC(N)=O)C(C)(C)[C@@H]/2CCC(N)=O.[C-]#N.[Co+3] | inactive: 10.6% [at 21.5 µM] | – |
| CC(C)OP(=O)(F)OC(C)C | inactive: -0.772% [at 12.7 µM] | – |
| CCOC(=O)c1ccc(NP(C)(=O)Oc2ccc(Cl)cc2)cc1 (centres undefined) | inactive | – |
